Experimental findings from PubChem BioAssay (Tox21) are described below.

Each structure is given as a SMILES string. Only a part is listed here, and it is no random draw. Results filed as inconclusive are left out. The source made the active and inactive calls. Calls follow the shape of the dose curve; as a rule, active = well fitted cell-killing curve with a large enough effect in the repeat runs; inconclusive = weak or mixed curves; inactive = no such curve, though single readings can be large or run the other way.
% is scaled to controls: 0 for no effect and ±100 for the full control effect; potency is read from the fitted curve at half-maximal effect.

The nature of this test: qHTS assay to identify small molecule antagonists of the peroxisome proliferator-activated receptor delta (PPARd) signaling pathway - cell viability counter screen (AID 743213). Also: nearly all actives have a fitted effect of over 50% in size. To be noted: PPARd-bla HEK293H viability, CellTiter-Glo luminescence, 17 h; series mostly up to 62 µM; viability change, negative = cytotoxic: at the top concentration. The source says: U.S. Tox21 Program National Center for Advancing Translational Sciences [NCATS] NIH Chemical Genomics Center [NCGC] U.S. Environmental Protection Agency [EPA] National Institutes of Environmental Health Sciences [NIEHS] National Toxicology Program [NTP] U.S. Food and Drug Administration [FDA] Tox21 Assay Overview: The peroxisome proliferator-activated receptors (PPARs) are lipid-activated transcription factors of the nuclear receptor superfamily with three distinct subtypes namely PPAR alpha, PPAR delta (PPARd) and PPAR gamma. All these subtypes heterodimerizes with Retinoid X receptor (RXR) and have different physiological functions. […] To identify the compounds that inhibit PPAR-delta signaling, GeneBLAzer PPAR delta UAS-bla HEK293H cell line (Invitrogen, Carlsbad, CA, USA) containing a beta-lactamase reporter gene under the control of an Upstream Activator Sequence (UAS) was used to screen the Tox21 compound library. The cytotoxicity of the Tox21 compound library against the PPARd-bla cell line was tested in parallel by measuring the cell viability using CellTiter-Glo assay (Promega, Madison, WI) in the same wells.
Tox21 Assay Protocol Summary: PPARd-bla cells were dispensed at 3000 cells/5uL/well in 1536-well black wall/clear bottom plates using a Multidrop Combi (Thermo Fisher Scientific, Waltham, MA) dispenser. After the assay plates were incubated at 37 C and 5% CO2 for 5 h, 23 nL of compounds dissolved in DMSO, positive controls or DMSO only was transferred to the assay plate by a Pintool station (Kalypsys, San Diego, CA), followed by addition of 1ul L165041 (300 nM, final concentration in the wells). The assay plates were incubated at 37 C for 17 h, and then 1 uL of LiveBLAzerTM B/G FRET substrate was added using a Bioraptr Flying Reagent Dispenser (FRD) workstation (Beckman Coulter, Indianapolis, IN, USA). The assay plates were incubated at room temperature for 2 h and fluorescence intensity was measured by an Envision plate reader (PerkinElmer, Shelton, CT). For cell viability readout that measures cytotoxicity, 3 ul/well of CellTiter-Glo reagent was added into the assay plates using a Bioraptr FRD. After 30 min incubation at room temperature, the luminescence intensity in the plates was measured using a ViewLux plate reader (PerkinElmer).
For the compound `O=[p+]1oc2ccccc2c2ccccc21` (stereo unspecified), the “viability change, negative = cytotoxic” value was inactive: 2.88%.

As for `O=P(Cl)(Oc1ccccc1)Oc1ccccc1`, the “viability change, negative = cytotoxic” value was inactive: 10.8%.

`CCOC(=O)Cl`: the “viability change, negative = cytotoxic” value is inactive: 1.45%.

Regarding `NC(=O)Nc1ccc([As](=O)(O)O)cc1`, the Potency entry is “inactive”.

Consider `Cc1cc([N+](=O)[O-])c(O)c([N+](=O)[O-])c1`, for which the “viability change, negative = cytotoxic” value was inactive: 8.51% [at 80.4 µM].

Consider `CCCCO[P+](=O)OCCCC`, for which the Potency result was “inactive”.

As for `CC(C)CCCCCCCOP(OCCCCCCCC(C)C)Oc1ccccc1`, the “viability change, negative = cytotoxic” value is inactive: -26%.

`CCCCC(CC)CO[P+](=O)OCC(CC)CCCC` (stereo unspecified): the “viability change, negative = cytotoxic” value is inactive: 4.51%.

Regarding `CCOP(=S)(CC)Sc1ccccc1` (stereo unspecified), the “viability change, negative = cytotoxic” value is inactive: -0.394%.

Regarding `O=P(Cl)(Cl)c1ccccc1`, the “viability change, negative = cytotoxic” value is inactive: 0.534%.

`O=[As]c1ccccc1` (stereo unspecified): the Potency is active: 0.616 µM.

For `COP(=S)(Cl)OC`, the “viability change, negative = cytotoxic” value is inactive: 5.38% [at 80.4 µM].

With `CN(C(=O)Cc1cccc2occc12)[C@H]1CC[C@@]2(CCCO2)C[C@@H]1N1CCCC1`, the “viability change, negative = cytotoxic” value was inactive: 17.3%.

For `O=[P+](Oc1ccccc1)Oc1ccccc1`, the “viability change, negative = cytotoxic” value was inactive: -22.9%.

Consider `CCCCCCCCCCCCCC[P+](CCCCCC)(CCCCCC)CCCCCC`, for which the Potency is active: 7.74 µM.

`O=[N+]([O-])c1ccc(S(=O)(=O)O)c([N+](=O)[O-])c1`: the “viability change, negative = cytotoxic” value is inactive: 20.4% [at 80.4 µM].

Turning to `CCNC(C)Cc1ccc2c(c1)OCO2` (stereo unspecified), the “viability change, negative = cytotoxic” value is inactive: -2.34% [at 80.4 µM].

In the case of `CN(C(=O)Cc1ccc(Cl)c(Cl)c1)[C@H]1CC[C@@]2(CCCO2)C[C@@H]1N1CCCC1`, the “viability change, negative = cytotoxic” value is inactive: -12.3%.

Turning to `ClP(Cl)c1ccccc1`, the “viability change, negative = cytotoxic” value was inactive: 6.54%.

As for `CN(C(=O)Cc1ccccc1)[C@H]1CC[C@@]2(CCCO2)C[C@@H]1N1CCCC1`, the “viability change, negative = cytotoxic” value is inactive: 13.3%.

For the compound `CN(N=O)C(=N)N[N+](=O)[O-]`, the “viability change, negative = cytotoxic” value is inactive: 3.44%.
